# Results as given in US20150266957A1 (Regeneron, published 2015).
# By UniProt entry, the sequences of proteins in these tests, tags left out. Where a name states a change or a piece, a line headed by the entry shows the natural chain unless it says otherwise.
# UniProt Q8TCW9: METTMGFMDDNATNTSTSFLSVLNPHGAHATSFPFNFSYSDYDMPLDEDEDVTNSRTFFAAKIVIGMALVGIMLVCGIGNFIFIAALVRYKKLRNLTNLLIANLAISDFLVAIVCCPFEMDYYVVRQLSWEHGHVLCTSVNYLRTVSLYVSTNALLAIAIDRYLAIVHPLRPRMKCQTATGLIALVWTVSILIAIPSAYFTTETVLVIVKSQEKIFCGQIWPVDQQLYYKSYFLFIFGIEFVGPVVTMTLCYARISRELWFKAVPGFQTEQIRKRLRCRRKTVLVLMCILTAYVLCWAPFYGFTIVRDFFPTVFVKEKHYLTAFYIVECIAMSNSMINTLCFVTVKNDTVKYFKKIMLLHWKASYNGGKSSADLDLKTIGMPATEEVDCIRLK
# Where a chain is given by its changes, count along the chain named.
# T1: mouse PROKR1 (mouse (Mus musculus), UniProt Q9JKL1 1-393)
# T1 sequence (looked up): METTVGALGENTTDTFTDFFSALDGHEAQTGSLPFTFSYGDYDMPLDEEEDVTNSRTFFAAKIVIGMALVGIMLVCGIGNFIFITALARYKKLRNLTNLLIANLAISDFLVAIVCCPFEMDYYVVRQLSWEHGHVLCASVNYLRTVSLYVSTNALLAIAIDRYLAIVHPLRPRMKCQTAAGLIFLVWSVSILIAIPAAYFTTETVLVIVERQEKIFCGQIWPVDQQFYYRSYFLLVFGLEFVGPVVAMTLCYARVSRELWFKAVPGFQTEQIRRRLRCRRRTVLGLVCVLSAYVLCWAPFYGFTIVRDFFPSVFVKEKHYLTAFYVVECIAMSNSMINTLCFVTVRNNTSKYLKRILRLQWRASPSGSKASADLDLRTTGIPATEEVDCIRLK
# T2: rat PROKR1 (rat (Rattus norvegicus), UniProt Q8R416 1-393)
# T2 sequence (looked up): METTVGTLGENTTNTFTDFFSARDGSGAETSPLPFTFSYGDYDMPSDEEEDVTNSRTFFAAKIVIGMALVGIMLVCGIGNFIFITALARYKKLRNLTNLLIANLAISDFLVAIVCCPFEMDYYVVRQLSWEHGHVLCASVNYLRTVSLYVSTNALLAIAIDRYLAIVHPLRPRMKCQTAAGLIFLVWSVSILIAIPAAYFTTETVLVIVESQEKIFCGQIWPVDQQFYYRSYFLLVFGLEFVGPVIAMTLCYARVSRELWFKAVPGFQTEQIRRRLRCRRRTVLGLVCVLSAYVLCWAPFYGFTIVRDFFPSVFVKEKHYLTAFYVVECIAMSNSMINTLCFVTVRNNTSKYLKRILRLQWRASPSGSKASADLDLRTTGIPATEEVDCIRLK
# T3: cynomolgus monkey PROKR1 (cynomolgus monkey (Macaca fascicularis), UniProt G7PMD0 1-393)
# T3 sequence: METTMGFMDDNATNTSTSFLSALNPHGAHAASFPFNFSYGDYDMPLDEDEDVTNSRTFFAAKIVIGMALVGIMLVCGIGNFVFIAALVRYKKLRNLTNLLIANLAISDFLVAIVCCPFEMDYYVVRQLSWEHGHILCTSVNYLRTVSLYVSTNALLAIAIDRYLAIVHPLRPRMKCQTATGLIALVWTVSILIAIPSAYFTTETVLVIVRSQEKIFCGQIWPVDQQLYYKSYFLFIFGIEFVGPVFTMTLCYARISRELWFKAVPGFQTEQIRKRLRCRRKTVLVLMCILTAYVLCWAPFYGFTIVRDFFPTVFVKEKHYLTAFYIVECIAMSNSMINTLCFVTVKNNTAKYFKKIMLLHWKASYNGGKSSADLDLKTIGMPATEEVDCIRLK
# T4: human PROKR1 (human, UniProt Q8TCW9 1-393)
# T4 sequence: T3 sequence with A22V, A31T, G40S, V82I, I135V, R210K, F246V, N348D, A350V
# T5: human PROKR2 (human, UniProt Q8NFJ6 1-384)
# T5 construct: Expressed on engineered HEK293 or CHO cells; also called hPROKR2; prokineticin receptor 2
# T5 sequence: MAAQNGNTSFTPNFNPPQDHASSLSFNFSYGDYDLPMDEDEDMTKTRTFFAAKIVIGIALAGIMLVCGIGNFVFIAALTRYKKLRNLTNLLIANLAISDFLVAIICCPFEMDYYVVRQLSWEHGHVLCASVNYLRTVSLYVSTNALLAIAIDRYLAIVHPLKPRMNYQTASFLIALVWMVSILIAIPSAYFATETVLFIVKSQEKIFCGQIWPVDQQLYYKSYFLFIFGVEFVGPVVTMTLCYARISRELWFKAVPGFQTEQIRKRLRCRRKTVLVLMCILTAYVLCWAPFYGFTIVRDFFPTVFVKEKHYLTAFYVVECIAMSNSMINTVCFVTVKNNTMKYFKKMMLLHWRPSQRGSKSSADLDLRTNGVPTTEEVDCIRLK
# B1: H4H6696P (antibody, human IgG4, V domains shown)
# VH: EVQLVESGGGLVKPGGSLRLSCAASGFTFSNAWMTWVRQAPGKGLEWVGRIKIKTDGGTTDYAAPVKGRFTISRDDSKNTLYLQMNSLKTEDTAVYYCTTGHTSYWGQGTLVTVSS
# VL: not shown
# B2: H4H6690P (antibody, human IgG4, V domains shown)
# VH: B1 VH with T35S, I53S, Y62H, S87T, T103S
# VL: not shown
# Columns and labels:
# mouse PROKR1 = target: T1, mouse PROKR1; assay: cell-based or functional assay
# rat PROKR1 = target: T2, rat PROKR1; assay: cell-based or functional assay
# cynomolgus monkey PROKR1 = target: T3, cynomolgus monkey PROKR1; assay: cell-based or functional assay
# human PROKR1 [1] = target: T4, human PROKR1; assay: cell-based or functional assay
# human PROKR2(1-53)-hFc [2] = target: T6, human PROKR2(1-53)-hFc (human); assay: SPR (Biacore 4000), 25 C, antibody captured, antigen injected at 25 and 100 nM
# T6 construct: also called soluble human PROKR2 (N-terminal portion)
# Method: (§1) Kinetic experiments were carried out using HBS-EP (10 mM HEPES, 150 mM NaCl, 3 mM EDTA, 0.05% Surfactant P20, pH 7.4) as both the running buffer and the sample buffer. Antigen-antibody association rates were measured by injecting 2 concentrations (25 and 100 nM) of both human PROKR1 (1-62)-hFc (SEQ ID NO:179) and human PROKR2(1-53)-hFc (SEQ ID NO:180) over the captured antibody surface. Antibody-antigen association was monitored for 90 seconds while dissociation was monitored for 360 seconds. Kinetic on-rate (kₐ) and off-rate (kd) constants were determined from the data using Scrubber software version 2.0 c. Binding dissociation equilibrium constants (KD) and dissociative half-lives (t 1/2) were calculated from the kinetic rate constants as: KD=kd/kₐ and t 1/2=ln(2)/kd.
# human PROKR1 (1-62)-hFc = target: T7, human PROKR1 (1-62)-hFc (human); assay: as above
# T7 construct: also called soluble human PROKR1 (N-terminal portion)
# Method: as §1
# human PROKR1 [3] = target: T4, human PROKR1; assay: cell-based or functional assay; remark: listed apart in the source
# human PROKR2(1-53)-hFc [4] = target: T6, human PROKR2(1-53)-hFc; assay: SPR (Biacore 4000), 25 C, antibody captured
# Method: as §1
# human PROKR2 = target: T5, human PROKR2; assay: flow cytometry, HEK293 cells expressing the target
# Method: Anti-PROKR antibodies generated in accordance with Example 1 were tested for the ability to bind to human, mouse, and monkey PROKR1 and PROKR2. For these experiments, HEK293 cells were engineered to express: human PROKR1; human PROKR2; mouse PROKR1; mouse PROKR2; cynomolgus monkey PROKR1; or cynomolgus monkey PROKR2. Binding of anti-human PROKR antibodies to the PROKR-expressing cell lines was measured by flow cytometry.
# Adherent cells were collected using 1 mM EDTA in PBS, then washed, and re-suspended in cold PBS containing 5% FBS. For the binding experiments, each anti-PROKR antibody was added to 250,000 cells in 500 μl of PBS with 5% FBS (final antibody concentration of 13 nM). After incubation for 20 minutes at room temperature, the cells were washed with PBS containing 5% FBS. A secondary antibody, recognizing either human (Jackson Immuno Research, #115-135-205) or mouse Fc (BD Pharmigen, #550826) and conjugated to allophycyanin, was then added to the cell mixture at a final concentration of 13.3 nM. After incubating for 20 minutes on ice, the cells were washed and resuspended in PBS containing 5% FBS and then sorted and analyzed on a FACSCalibur (BD Biosciences) flow cytometer to determine relative binding by the candidate antibodies. The cell samples containing secondary antibody alone were used as negative control for FACS gating. […] ND=not determined.
binder,measurement,setting,value
B1,"Block (%), calcium flux, mPROKR1 + PK1 (1 nM hPK1)",mouse PROKR1,0%
same,"Block (%), calcium flux, rPROKR1 + PK1 (1 nM hPK1)",rat PROKR1,0%
same,"Block (%), calcium flux, MfPROKR1 + PK1 (5 nM hPK1)",cynomolgus monkey PROKR1,93.9%
same,"Block (%), calcium flux, MfPROKR1 + PK2 (0.5 nM hPK2)",cynomolgus monkey PROKR1,67.9%
same,"IC50 (nM), inhibition of calcium flux, MfPROKR1 + PK1 (5 nM hPK1)",cynomolgus monkey PROKR1,31 nM
same,"IC50 (nM), inhibition of calcium flux, MfPROKR1 + PK2 (0.5 nM hPK2)",cynomolgus monkey PROKR1,> 300 nM
same,"Block (%), calcium flux, hPROKR1 + PK1 (1 nM hPK1)",human PROKR1 [1],101%
same,"Block (%), calcium flux, hPROKR1 + PK2 (1 nM hPK2)",human PROKR1 [1],32.9%
same,"IC50 (nM), inhibition of calcium flux, hPROKR1 + PK1 (1 nM hPK1)",human PROKR1 [1],13.1 nM
same,"IC50 (nM), inhibition of calcium flux, hPROKR1 + PK2 (1 nM hPK2)",human PROKR1 [1],> 300 nM
same,koff,human PROKR2(1-53)-hFc [2],0.0163 s⁻¹
same,kon,human PROKR2(1-53)-hFc [2],763000 M⁻¹ s⁻¹
same,t½,human PROKR2(1-53)-hFc [2],1 min
same,Kd,human PROKR1 (1-62)-hFc,2.3 nM
same,koff,human PROKR1 (1-62)-hFc,0.000727 s⁻¹
same,kon,human PROKR1 (1-62)-hFc,317000 M⁻¹ s⁻¹
same,t½,human PROKR1 (1-62)-hFc,16 min
same,"IC50 (nM), blocking of hPK1 induced calcium flux, CHO/hPROKR1 non-induced (40 nM hPK1)",human PROKR1 [3],3.8 nM
same,"IC50 (nM), blocking of hPK2 induced calcium flux, CHO/hPROKR1 non-induced (4 nM hPK2)",human PROKR1 [3],19.1 nM
B2,binding result,human PROKR2(1-53)-hFc [4],no binding (tested: 25 and 100 nM antigen injected)
same,"Block (%), calcium flux, hPROKR1 + PK1 (20 nM hPK1)",human PROKR1 [1],24.7%
same,"IC50 (nM), inhibition of calcium flux, hPROKR1 + PK1 (20 nM hPK1)",human PROKR1 [1],> 1000 nM
same,Kd,human PROKR1 (1-62)-hFc,2.92 nM
same,koff,human PROKR1 (1-62)-hFc,0.00159 s⁻¹
same,kon,human PROKR1 (1-62)-hFc,545000 M⁻¹ s⁻¹
same,t½,human PROKR1 (1-62)-hFc,7 min
same,binding result,human PROKR2,no binding
